# From patent US9822157B2 (priority 2013, dated 2017)
# pEC50: −log10 of the molar value. Like-named read-outs stand apart in the source and are kept apart here.
# Experiments:
# [1] = biological target: T1, human ferroportin (Homo sapiens, UniProt Q9NP59); assay type: cell-based
# T1 sequence (Q9NP59 1-571): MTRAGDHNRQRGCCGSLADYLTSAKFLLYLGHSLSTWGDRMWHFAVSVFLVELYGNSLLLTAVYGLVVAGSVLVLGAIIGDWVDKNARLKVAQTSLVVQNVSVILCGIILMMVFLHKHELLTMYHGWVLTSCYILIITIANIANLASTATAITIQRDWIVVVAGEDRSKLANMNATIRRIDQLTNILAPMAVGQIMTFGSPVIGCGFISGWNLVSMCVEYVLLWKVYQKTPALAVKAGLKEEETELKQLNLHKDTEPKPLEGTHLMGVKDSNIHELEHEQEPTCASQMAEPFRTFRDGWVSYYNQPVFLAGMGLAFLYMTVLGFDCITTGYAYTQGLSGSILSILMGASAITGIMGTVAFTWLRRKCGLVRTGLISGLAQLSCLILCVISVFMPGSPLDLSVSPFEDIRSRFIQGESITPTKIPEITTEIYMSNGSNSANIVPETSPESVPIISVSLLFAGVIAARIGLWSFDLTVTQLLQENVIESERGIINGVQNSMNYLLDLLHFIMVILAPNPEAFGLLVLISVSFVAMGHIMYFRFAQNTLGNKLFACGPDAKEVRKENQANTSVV
# Text: The cDNA encoding the human ferroportin (SLC40A1) was cloned from a cDNA clone from Origene (NM_014585). The DNA encoding the ferroportin was amplified by PCR using primers also encoding terminal restriction sites for subcloning, but without the termination codon. The ferroportin receptor was subcloned into a mammalian GFP expression vector containing a neomycin (G418) resistance marker in such that the reading frame of the ferroportin was fused in frame with the GFP protein. The fidelity of the DNA encoding the protein was confirmed by DNA sequencing. HEK293 cells were used for transfection of the ferroportin-GFP receptor expression plasmid. The cells were grown according to standard protocol in growth medium and transfected with the plasmids using Lipofectamine (manufacturer's protocol, Invitrogen). […] The cells were propagated and frozen in aliquots.
# Compound was added to desired final concentration for at least 18 hours in the incubator. […] Compound was added to desired final concentration for at least 18 hours but no more than 24 hours in the incubator.
# A retro inverse peptide is a peptide with a reversed sequence in all D amino acids. […] The EC50 of these reference compounds for ferroportin degradation was determined according to the activity assay described above.
# [2] = Stability in human serum (LC-MS); assay type: in vitro ADME; conditions: for Stability Human: hours stable in plasma; for t½: human serum, 10 μM peptide, 37 degrees C, up to 24 hours
# Experimental: Serum stability experiments were undertaken to complement the in vivo results and assist in the design of potent, stable Ferroportin agonists. In order to predict the stability in humans, ex vivo stability studies were initially performed in human serum.
# Key peptides (10 μM) were incubated with pre-warmed human serum (Sigma) at 37 degrees C. Samples were taken at various time points up to 24 hours. The samples were separated from serum proteins and analysed for the presence of the peptide of interest using LC-MS. The amount of intact peptide in each sample was calculated using the analyte peak area in relation to the zero time point.
# (§1) The peptides were also tested for other pharmacokinetic/pharmacodynamic (PK/PD) parameters using methods commonly know by the skilled artisan. These parameters included determinations regarding stability (hours stable in plasma from the indicated human or rat subject), half-life in mice, and in vitro activity (EC50), tested as described in Example 2.
# [3] = Stability in rat plasma; assay type: in vitro ADME; conditions: hours stable in plasma
# Experimental: as §1
# [4] = Mouse PK half-life; assay type: in vivo; conditions: half-life in mice
# Experimental: as §1
# [5] = Hepcidin analog peptides, read-out: Potency EC50
# [6] = in vitro activity (EC50) tested as in Example 2, read-out: In Vivo Activity EC50
# [7] = read-out: EC50 (nM) (n = 3), in vitro activity as in Example 2, peptide monomers and dimers dimerized through a single disulphide linkage, n = 3
# [8] = read-out: Log dilutions EC50 (nM) (n > 3) (converted), monomers and dimers through a glycol linker on εN of lysine
# [9] = read-out: EC50 (nM) (n > 3), peptide dimers, dimer position explored (DIG linker)
substance,measurement,setting,value
"Hy-DTHFPIC(1)IFC(2)C(3)GC(2)C(4)HRSKC(3)GMC(4)C(1)KT-OH [Hepcidin, reference compound]",pEC50,"[1]; reference compounds, ferroportin degradation, read-out: EC50",6.77
same,Stability Human,[2],2.76 h
same,t½,[2],166 min
same,Stability Rat,[3],Var
"Hy-DTHFPICIF-NH2 [Mini-Hepcidin 1-9, reference compound]",t½,[2],6 min
Isovaleric acid-DTHFPCIKF-K(PEG8)-PRSKGWVCK-NH2 [Compound 150],pEC50,[1]; [5],8.15
same,pEC50,[1]; [6],8.15
same,Stability Human,[2],1.35 h
same,Stability Rat,[3],0.42 h
same,Mouse PK T1/2,[4],31.6 min
Isovaleric acid-DTHFPCIKFEPRSKGCK-NH2 [Compound 184],pEC50,[1]; [6],7.80
same,Stability Human,[2],8.16 h
same,Stability Rat,[3],2.12 h
same,Mouse PK T1/2,[4],36.9 min
Isovaleric acid-DTHFPCIKFGPRSKGWVCK-NH2 [Compound 9],pEC50,[1]; [5],7.49
same,pEC50,[1]; [6],7.49
same,Stability Human,[2],0.57 h
same,Stability Rat,[3],0.14 h
same,Mouse PK T1/2,[4],22.5 min
Hy-DTHFPCIIF-NH2 [Compound 1],pEC50,[1]; [5],6.88
same,EC50,[1]; [7],133 nM
same,EC50,"[1]; read-out: EC50 (nM) (n > 3), alanine scan of Compound 1",133 nM
same,EC50,"[1]; read-out: EC50 (nM) (n > 3), cysteine replacement scan of Mini-Hepcidin derivatives",133 nM
same,t½,[2],10.8 min
Isovaleric acid-DTHFPCIKFGPRSKGWVC-K(PEG8)-NH2 [Compound 153],pEC50,[1]; [5],7.74
same,pEC50,[1]; [6],7.74
same,Stability Human,[2],3.36 h
same,Stability Rat,[3],0.41 h
Isovaleric acid-DTHFPCIIFGPRSRGWVCK-NH2 [Compound 3],pEC50,[1]; [5],7.82
same,pEC50,[1]; [6],7.82
same,EC50,[1]; [8],15 nM
same,Stability Human,[2],0.43 h
same,t½,[2],30.6 min
same,Stability Rat,[3],0.08 h
Isovaleric acid-DTHFPCIEFGPRSKGWVCK-NH2 [Compound 15],pEC50,[1]; [5],7.10
same,pEC50,[1]; [6],7.10
same,Stability Rat,[3],0.15 h
[Ida]-TH-[Dpa]-[bh-Pro]-CIIFGPRSRGWVCK-NH2 [Compound 8],pEC50,[1]; [5],7.54
same,t½,[2],30.6 min
(Isovaleric acid-DTHFPCIRK-NH2)2 DIG through K9 [Compound 344],EC50,[1]; [9],45 nM
Isovaleric acid-DTHFPCIEFGPRSKGWTCK-NH2 [Compound 155],pEC50,[1]; [5],7.42
Isovaleric acid-DTHFPCIIFSPRSKGWVCK-NH2 [Compound 106],pEC50,[1]; [5],7.36
Isovaleric acid-DTHFPICIFGPRS-K(PEG8)-GWVC-NH2 [Compound 176],pEC50,[1]; [5],8.22
same,pEC50,[1]; [6],8.22
same,Stability Human,[2],15 h
same,Stability Rat,[3],1.62 h
(Isovaleric acid-DTHFPICIFGPRSKGWVC-NH2)2-[DIG] [Compound 353],EC50,[1]; [8],2.2 nM
Isovaleric acid-DTHFPCI-K(PEG8)-FGPRSKGWVCK-NH2 [Compound 149],pEC50,[1]; [5],8.05
Isovaleric acid-DTHFPCIKFEPRSKECK-NH2 [Compound 355],pEC50,[1]; [5],7.32
Isovaleric acid-DTHFKCIIFGPRSKGWVCK-NH2 [Compound 130],pEC50,[1]; [5],6.82
Isovaleric acid-DTHFPCIKFEPRSKGC-K(dapa-Palm)-K-NH2 [Compound 230],pEC50,[1]; [5],8.00
Isovaleric acid-DTHFPCIKFGPRSKCK-NH2 [Compound 187],pEC50,[1]; [5],7.68
Isovaleric acid-DTHFPCIIFEPRSKGWVCK-NH2 [Compound 105],pEC50,[1]; [5],8.00
same,pEC50,[1]; [6],8.00
same,Stability Human,[2],2.22 h
same,Stability Rat,[3],0.68 h
same,Mouse PK T1/2,[4],36.9 min
Isovaleric acid-HFPCIIFGPRSKGWVCM-NH2 [Compound 134],pEC50,[1]; [5],< 6.00
Isovaleric acid-DTHFPCIKFEPRSKGWVCK-NH2 [Compound 181],pEC50,[1]; [5],7.82
same,pEC50,[1]; [6],7.82
Isovaleric acid-DTHFPCIKFEPK(isoGlu-Palm)-SKGWECK-NH2 [Compound 242],pEC50,[1]; [5],8.10
Isovaleric acid-DTHFPICIFGPRSKGWVC-NH2 [Compound 2],pEC50,[1]; [6],8.30
same,EC50,[1]; [8],4.1 nM
same,Stability Human,[2],1.99 h
same,t½,[2],119 min
same,Stability Rat,[3],0.15 h
same,Mouse PK T1/2,[4],17.4 min
Isovaleric acid-DTHFPCIFEPRSKGCK-NH2 [Compound 185],pEC50,[1]; [5],7.27
Isovaleric acid-DTHFPCIKFGCK-NH2 [Compound 191],pEC50,[1]; [5],7.01
Hy-DTHFPIC1IFVC2GHRSIC2YRRC1R-NH2 [Compound 12],pEC50,[1]; [5],7.11
Isovaleric acid-DTHFPCIKFEP-K(isoglu-Palm)-SKGCK-NH2 [Compound 220],pEC50,[1]; [5],8.30
Isovaleric acid-DTHFPCIIFGPRSKGWVCK-NH2 [Compound 11],pEC50,[1]; [5],8.05
Isovaleric acid-DTHFGCIIFGPRSKGWVCK-NH2 [Compound 122],pEC50,[1]; [5],7.24
Hy-DTHFPCIF-NH2 [Compound 293],EC50,"[1]; read-out: EC50 (n = 3), cells printed in μM, in vitro activity as in Example 2, peptide monomers and dimers dimerized through a single disulphide linkage, n = 3",> 1000 nM
Hy-[bhAsp]-THFPICIFGPRSKGWVC-NH2 [Compound 46],t½,[2],126 min
Isovaleric acid-DTHFPCIKFC-NH2 [Compound 193],pEC50,[1]; [5],7.10
Isovaleric acid-DTHFPCI-[Dapa]-FGPRSKGWDCK-NH2 [Compound 118],pEC50,[1]; [5],7.77
Isovaleric acid-DTHFPCI-[Dapa]-FGPRSKGWECK-NH2 [Compound 120],pEC50,[1]; [5],7.82
(Isovaleric acid-DTHFPCIKF-NH2)2 DIG through K8 [Compound 342],EC50,[1]; [9],10 nM
Isovaleric acid-DTHFPCIIFEPRSKGWVCKKKK-NH2 [Compound 144],pEC50,[1]; [5],7.82
Isovaleric acid-DTHFPCIQFGPRSKGWVCK-NH2 [Compound 10],pEC50,[1]; [5],7.46
same,pEC50,[1]; [6],7.46
same,Stability Rat,[3],0.12 h
Isovaleric acid-DTHFKCIEFGPRSKGWVCK-NH2 [Compound 140],pEC50,[1]; [5],< 6.00
Isovaleric acid-DTHFPCI-K(isoglu-Palm)-FEPRSKGCK-NH2 [Compound 218],pEC50,[1]; [5],8.00
Hy-DTHFPIC1IFVC2HRSKGC2YRRC1R-NH2 [Compound 19],pEC50,[1]; [5],6.85
DTHFPICIFGARSKGWVCM-NH2 [Compound 354],EC50,"[1]; read-out: EC50 (nM) (n > 3), alanine scan of Compound 18",153 nM
Isovaleric acid-DTHFPCIKFEPRSKGCK-K(dapa-Palm)-NH2 [Compound 231],pEC50,[1]; [5],7.96
Isobutyric acid-PEG11-DTHFPCIIFGPRSRGWVCK-NH2 [Compound 109],pEC50,[1]; [5],< 6.00
Isovaleric acid-DTHFPCVIFGPRSKGWVCK-NH2 [Compound 94],pEC50,[1]; [5],7.39
Ac-DTHFPICIF-K(PEG8)-PRSKGWVCM-NH2 [Compound 76],pEC50,[1]; [5],6.21
Isovaleric acid-AAHFPCIKFGPRSKGWVCK-NH2 [Compound 233],pEC50,[1]; [5],6.49
Isovaleric acid-DTHFPCIIF-NH2 [Compound 288],pEC50,[1]; [5],7.80
same,EC50,[1]; [7],16 nM
Hy-DTH-[Dpa]-PCIIFGPRSRGWVCK-NH2 [Compound 78],pEC50,[1]; [5],< 6.00
Isovaleric acid-DTHFPCIKAGPRSKGWVCK-NH2 [Compound 237],pEC50,[1]; [5],7.30
Hy-DTHFPCIIFGPRSRGWVCK-NH2 [Compound 83],pEC50,[1]; [5],< 6.00
